Target: the molecule itself
Experiment: single-molecule photobleaching and intensity analysis (TIRF); uninduced (resting) HeLa cells: fixed with 4% formaldehyde before 10 nM InlB-ATTO647N in PBS, 1 h at 4°C; MET detected through the bound labelled ligand; fractional labelling

B1: endogenous MET receptor on HeLa cells (receptor, human (endogenous in HeLa), UniProt P08581 25-1390, looked up)
chain: ECKEALAKSEMNVNMKYQLPNFTAETPIQNVILHEHHIFLGATNYIYVLNEEDLQKVAEYKTGPVLEHPDCFPCQDCSSKANLSGGVWKDNINMALVVDTYYDDQLISCGSVNRGTCQRHVFPHNHTADIQSEVHCIFSPQIEEPSQCPDCVVSALGAKVLSSVKDRFINFFVGNTINSSYFPDHPLHSISVRRLKETKDGFMFLTDQSYIDVLPEFRDSYPIKYVHAFESNNFIYFLTVQRETLDAQTFHTRIIRFCSINSGLHSYMEMPLECILTEKRKKRSTKKEVFNILQAAYVSKPGAQLARQIGASLNDDILFGVFAQSKPDSAEPMDRSAMCAFPIKYVNDFFNKIVNKNNVRCLQHFYGPNHEHCFNRTLLRNSSGCEARRDEYRTEFTTALQRVDLFMGQFSEVLLTSISTFIKGDLTIANLGTSEGRFMQVVVSRSGPSTPHVNFLLDSHPVSPEVIVEHTLNQNGYTLVITGKKITKIPLNGLGCRHFQSCSQCLSAPPFVQCGWCHDKCVRSEECLSGTWTQQICLPAIYKVFPNSAPLEGGTRLTICGWDFGFRRNNKFDLKKTRVLLGNESCTLTLSESTMNTLKCTVGPAMNKHFNMSIIISNGHGTTQYSTFSYVDPVITSISPKYGPMAGGTLLTLTGNYLNSGNSRHISIGGKTCTLKSVSNSILECYTPAQTISTEFAVKLKIDLANRETSIFSYREDPIVYEIHPTKSFISGGSTITGVGKNLNSVSVPRMVINVHEAGRNFTVACQHRSNSEIICCTTPSLQQLNLQLPLKTKAFFMLDGILSKYFDLIYVHNPVFKPFEKPVMISMGNENVLEIKGNDIDPEAVKGEVLKVGNKSCENIHLHSEAVLCTVPNDLLKLNSELNIEWKQAISSTVLGKVIVQPDQNFTGLIAGVVSISTALLLLLGFFLWLKKRKQIKDLGSELVRYDARVHTPHLDRLVSARSVSPTTEMVSNESVDYRATFPEDQFPNSSQNGSCRQVQYPLTDMSPILTSGDSDISSPLLQNTVHIDLSALNPELVQAVQHVVIGPSSLIVHFNEVIGRGHFGCVYHGTLLDNDGKKIHCAVKSLNRITDIGEVSQFLTEGIIMKDFSHPNVLSLLGICLRSEGSPLVVLPYMKHGDLRNFIRNETHNPTVKDLIGFGLQVAKGMKYLASKKFVHRDLAARNCMLDEKFTVKVADFGLARDMYDKEYYSVHNKTGAKLPVKWMALESLQTQKFTTKSDVWSFGVLLWELMTRGAPPYPDVNTFDITVYLLQGRRLLQPEYCPDPLYEVMLKCWHPKAEMRPSFSELVSRISAIFSTFIGEHYVHVNATYVNVKCVAPYPSLLSSEDNADDEVDTRPASFWETS
notes: MET receptor tyrosine kinase, endogenous on the membrane of HeLa cells; also called MET receptor tyrosine kinase; source: endogenous, on intact serum-starved HeLa cells
stoichiometry N: 2

From PMC3674922, “Single-molecule photobleaching reveals increased MET receptor dimerization upon ligand binding in intact cells” (BMC Biophysics, 2013)
